US7459455B2, “Pyrimidine compounds” (SmithKline Beecham Corporation, priority 2002, dated 2008)

Amino acid sequences for entries named in this document (tags omitted). Residues count along the entry.
UniProt Q02763, 770-1124 limits assumed: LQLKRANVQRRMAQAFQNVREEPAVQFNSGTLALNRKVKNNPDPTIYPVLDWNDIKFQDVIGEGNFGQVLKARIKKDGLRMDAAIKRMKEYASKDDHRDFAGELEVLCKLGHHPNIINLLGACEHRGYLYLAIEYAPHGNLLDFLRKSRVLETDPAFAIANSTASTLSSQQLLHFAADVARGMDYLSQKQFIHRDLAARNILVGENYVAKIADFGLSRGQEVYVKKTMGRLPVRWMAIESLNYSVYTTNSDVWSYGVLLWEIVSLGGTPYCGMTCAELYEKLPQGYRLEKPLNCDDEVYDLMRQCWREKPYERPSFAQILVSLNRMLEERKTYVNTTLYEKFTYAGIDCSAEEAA
UniProt P35968, 786-1356 limits assumed: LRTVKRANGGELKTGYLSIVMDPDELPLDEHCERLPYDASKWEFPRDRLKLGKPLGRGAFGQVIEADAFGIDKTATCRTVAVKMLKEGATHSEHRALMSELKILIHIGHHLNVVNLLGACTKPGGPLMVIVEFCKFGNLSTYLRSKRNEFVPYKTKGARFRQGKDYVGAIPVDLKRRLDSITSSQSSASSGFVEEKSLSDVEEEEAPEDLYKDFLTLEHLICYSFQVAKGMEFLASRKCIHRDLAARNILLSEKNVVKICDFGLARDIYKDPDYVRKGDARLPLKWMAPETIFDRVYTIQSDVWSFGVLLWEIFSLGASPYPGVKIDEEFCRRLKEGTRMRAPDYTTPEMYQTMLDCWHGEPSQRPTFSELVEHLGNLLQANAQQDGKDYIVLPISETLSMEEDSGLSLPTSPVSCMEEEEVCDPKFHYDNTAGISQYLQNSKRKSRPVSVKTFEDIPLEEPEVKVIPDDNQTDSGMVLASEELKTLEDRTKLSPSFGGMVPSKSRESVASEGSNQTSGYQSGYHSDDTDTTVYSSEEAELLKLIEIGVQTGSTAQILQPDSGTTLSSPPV

What was measured:
Recombinant GST-Tie2 = Recombinant GST-Tie2 (Homo sapiens, UniProt Q02763); assay: Tie2 Fluorescence Polarization Kinase Activity Assay (TIE2-FP); details: activated Tie2, 200 μM ATP
Procedure: Tie2 Fluorescence Polarization Kinase Activity Assay: (TIE2-FP)
Activation of Recombinant Tie2 Activation:
Recombinant GST-Tie2 was activated by incubating the enzyme in 20 mM Tris-HCl, pH 7.5, 12 mM MgCl2, 100 mM NaCl, 20 μM sodium vanidate, 1 mM DT and 300 μM ATP at room temperature for 2 hours. The activation mixture was then passed through a NAP-25 desalting column (Pharmacia Biotech cat. no. 17-0852-O2) to remove the free ATP. The activated enzyme was stored as aliquots at −80° C. in 20 mM Tris-HCl, pH 7.5 and 100 mM NaCl.
The final assay conditions were 50 mM HEPES, pH 7.5, 5% DMSO (when screening compounds), 200 μM ATP, 5 mM MgCl2, 1 mM DTT, 50 μM sodium vanidate, 1 nM activated enzyme, and 200 μM peptide. IC50's of compounds were measured under subsaturating ATP (200 μM) and varing concentrations of activated Tie2 and peptide substrate (RFWKYEFWR-OH; MW 1873 Da, TFA salt). Panvera Anti-phosphotyrosine antibody (Cat#P2840) and PTK Green Tracer (Cat#P2842) were used to detect the phosphorylated peptide. Polarization was measured on a TECAN Polarion in 138-second cycles for 30 minutes at room temperature. IC50's were then determined from the % polarization using normal calculation methods.

[1] = tested on: Human umbilical cord endothelial cells (HUVEC); assay: VEGF-Driven Cellular Proliferation Assay: BrdU Incorporation Assay (VEGF-C)
Procedure: VEGF-Driven Cellular Proliferation Assay: BrdU Incorporation Assay (VEGF-C)
Human umbilical cord endothelial cells (HUVEC, Clonetics, CC2519) were passaged in Type I collagen-coated 100-mm petridishes in EGM-MV medium (Clonetics, CC3125) at 37 C in a humidified 5% CO2, 95% air incubator. (HUVEC passaged more than 6 times in vitro were discarded and not subjected to assaying.) The cells were harvested using trypsin/EDTA, counted using a haemocytometer and plated at 5000 cells/well in a Type I-collagen coated 96-well plate (Becton Dickinson, 354407) in M199 medium (Gibco BRL, 12340-030) containing 5% FBS (Hyclone, A 1115-L) and gentamicin (at 50 ug/ml, Gibco BRL). After incubation overnight at 37° C., the media were replaced with 100 ul of M199 serum-free medium containing compounds at various concentrations with 0.6% DMSO and gentamicin. The compounds were diluted in serum-free M199 medium from 10 mM stock solutions prepared in 100% DMSO. […] The incorporation of BrdU into the proliferating HUVEC were analyzed using BrdU Cell Proliferation ELISA (Roche Molecular Biochemicals, 1647229) according to the manufacturer's protocols. The optical density at 450 nm was measured with a multilabel counter (ARVO SX, Wallac). The percent inhibition of cell growth was calculated relative to blank control wells. […]

GST-VEGFR2 = GST-VEGFR2 (Homo sapiens, UniProt P35968); assay: VEGF-R2 Enzyme Assay (VEGF-E), LANCE method; details: GST-VEGFR2, 75 μM ATP, peptide phosphorylation
Description: VEGF-R2 Enzyme Assay VEGF-E)
The VEGF enzyme assay used the LANCE method (Wallac) and GST-VEGFR2, baculovirus expressed recombinant constructs of the intracellular domains of human TIE2 tagged by GST. The method measured the ability of the purified enzymes to catalyse the transfer of the γ-phosphate from ATP onto tyrosine residues in a biotinylated synthetic peptide, (biotin-aminohexyl-EEEEYFELVAKKKK-NH2). This peptide phosphorylation was detected using the following procedure: GST-VEGFR2 was incubated for 40-60 mins at room temperature with 75 μM ATP, 5 mM MgCl2, 0.1 mM DTT, 0.1 mg/mL BSA and the test compound (diluted from a 10 mM stock in DMSO for desired concentration) in 100 mM HEPES buffer. The reaction was stopped by the addition of EDTA (final concentration 50 mM). Streptavidin linked-APC (allophycocyanin, Molecular Probe) and Europium-labeled anti-phosphorylated tyrosile antibody (Wallac) were then added at the final concentration of 15 nM and 1 nM, respectively. The APC signal was measured using an ARVO multilabel counter (Wallac Berthold, Japan). The percent inhibition of activity was calculated relative to blank control wells. The concentration of test compound that inhibits 50% of activity (IC50) was interpolated using nonlinear regression (Levernberg-Marquardt) and the equation, γ=Vmax (1−x/(K+x))+Y2, where “K” was equal to the IC50. […]

CN(c1ccc(NC(=O)Nc2cccc(Cl)c2)cc1)c1ccnc(Nc2ccc(S(N)(=O)=O)cc2)n1
+++ (+++ = pIC50 of >7.0): TIE2-FP (Recombinant GST-Tie2) | VEGF-C [1] | VEGF-E (GST-VEGFR2)
